Source: patent publication US7241791B2, “Substituted 4-(indazol-3-yl)phenols” (Wyeth, priority 2002, dated 2007)
Like-named read-outs stand apart in the source and are kept apart here.

The chains behind the UniProt entries cited, without tags or fusion partners.
UniProt P03372, whole entry: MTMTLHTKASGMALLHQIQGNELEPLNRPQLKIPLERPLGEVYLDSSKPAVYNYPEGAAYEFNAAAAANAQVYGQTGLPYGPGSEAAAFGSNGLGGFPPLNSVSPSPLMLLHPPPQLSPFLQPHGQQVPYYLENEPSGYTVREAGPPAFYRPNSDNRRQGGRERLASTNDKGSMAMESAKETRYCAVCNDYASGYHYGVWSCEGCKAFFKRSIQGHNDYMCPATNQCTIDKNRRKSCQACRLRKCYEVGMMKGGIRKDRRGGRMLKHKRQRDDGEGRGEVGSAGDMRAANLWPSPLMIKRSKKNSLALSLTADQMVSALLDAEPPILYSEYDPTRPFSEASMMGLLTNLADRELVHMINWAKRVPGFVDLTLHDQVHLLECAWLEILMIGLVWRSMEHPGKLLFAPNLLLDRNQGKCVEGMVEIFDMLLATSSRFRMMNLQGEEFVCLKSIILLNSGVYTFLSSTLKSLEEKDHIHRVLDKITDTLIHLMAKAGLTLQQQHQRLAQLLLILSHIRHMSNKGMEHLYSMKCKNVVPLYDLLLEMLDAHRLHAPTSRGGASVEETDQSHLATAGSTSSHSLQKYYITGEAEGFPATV

How the values were obtained:
human ERα [1] = target: T1, human ERα (Homo sapiens, UniProt P03372); assay: Creatine kinase expression (ER/CK) in Ad5-wt-hERα infected HAECT-1 cells
human ERα [2] = target: T1, human ERα; assay: NF-κB luciferase reporter (ER/NF-KB-luc) in Ad5-wt-hERα infected HAECT-1 cells; conditions: for IC50: IL-1β
[3] = ER/NF-KB-luc IC50, Ad5-wt-ER infected HAECT-1 cells

Row | IC50 (human ERα [2]; [3]) | Compound | ER/CK % E2 (human ERα [1]; efficacy relative to the maximal stimulation observed with E2) | EC50 (human ERα [1]; read-out: ER/CK EC50, Ad5-wt-ER infected HAECT-1 cells) | ER/NF-KB-luc % E2 (human ERα [2]; efficacy relative to the maximal inhibition observed with E2) | IC50 (human ERα [2]; read-out: ER/NF-KB-luc IC50, Ad5-wt-ER infected HAECT-1 cells)
1 |  | 4-(7-fluoro-1-(3,3,3-trifluoropropyl)-1H-indazol-3-yl)phenol [Example 62] | 30 % E2 | 253 nM | 82 % E2 | 47 nM
2 | 47 nM | CC(C)n1nc(-c2ccc(O)cc2)c2cccc(-c3ccccc3)c21 [Example 236, 4-(1-isopropyl-7-phenyl-1H-indazol-3-yl)phenol] |  |  |  | 
3 | 47 nM | Cc1cc(O)ccc1-c1nn(C(C)C)c2c(-c3ccc(O)c(O)c3)cccc12 [Example 250, 4-[3-(4-hydroxy-2-methylphenyl)-1-isopropyl-1H-indazol-7-yl]-benzene-1,2-diol] |  |  |  | 
